Laboratory results taken from patent publication US20180313858A1, “QUANTIFICATION OF DRUGS IN BIOLOGICAL SAMPLES” (Indivior UK Limited, priority 2015, published 2018).

Assay: Stability testing of analytes in human K2 EDTA plasma and sample extracts
Conditions: for Observed Concentration ± S.D.: n = 6
[1] = bench top (6.2 h, ice-water bath), spiked 60.0 pg/mL, human K2 EDTA plasma
[2] = bench top (6.2 h, ice-water bath), spiked 7500 pg/mL, human K2 EDTA plasma
[3] = extract (74 h, 2-8° C.), spiked 60.0 pg/mL
[4] = extract (74 h, 2-8° C.), spiked 7500 pg/mL
[5] = freeze-thaw (4 cycles), spiked 60.0 pg/mL, human K2 EDTA plasma
[6] = freeze-thaw (4 cycles), spiked 7500 pg/mL, human K2 EDTA plasma
[7] = long-term (−20° C., 606 days), spiked 60.0 pg/mL, human K2 EDTA plasma
[8] = long-term (−20° C., 606 days), spiked 7500 pg/mL, human K2 EDTA plasma

CO[C@]12CC[C@@]3(C[C@@H]1[C@](C)(O)C(C)(C)C)[C@H]1Cc4ccc(O)c5c4[C@@]3(CCN1)[C@H]2O5
Bias (vs nominal concentration) [1]: −2.5% | Observed Concentration ± S.D. [1]: 58.5 ± 2.82 ng/mL | Bias (vs nominal concentration) [2]: −5.2% | Observed Concentration ± S.D. [2]: 7110 ± 146 ng/mL | Bias (vs nominal concentration) [3]: −3.0% | Observed Concentration ± S.D. [3]: 58.2 ± 4.35 ng/mL | Bias (vs nominal concentration) [4]: −2.1% | Observed Concentration ± S.D. [4]: 7339 ± 217 ng/mL | stability (in words) (extracted solution, refrigerated (2-8° C.) for at least 73.8 hours): stable | Bias (vs nominal concentration) [5]: −0.8% | Observed Concentration ± S.D. [5]: 59.5 ± 1.46 ng/mL | Bias (vs nominal concentration) [6]: 1.4% | Observed Concentration ± S.D. [6]: 7608 ± 367 ng/mL | stability (in words) (human plasma samples stored at −20° C. for at least 606 days): stable | Bias (vs nominal concentration) [7]: −7.4% | Observed Concentration ± S.D. [7]: 55.6 ± 1.34 ng/mL | Bias (vs nominal concentration) [8]: −5.2% | Observed Concentration ± S.D. [8]: 7110 ± 169 ng/mL | stability (in words) (unextracted human plasma after four freeze/thaw cycles): stable | stability (in words) (unextracted human plasma on the benchtop for 6.2 hours in an ice-water bath): stable
